## Curated experimental data: properties

Data: OPERA 2.9 data sets, kmansouri/OPERA on GitHub.

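The OPERA project collected these measurements from public sources as training and test data for property models. The files give a single number for a compound and property, which may rest on several reports. Method and conditions are not stated for these values. Where a salt, mixture or single isomer is drawn, the source does not say that exactly this form was tested. Some entries may be limits or estimates that an upstream database listed as plain numbers.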

The melting point is given in degrees Celsius.
Boiling points are in °C, nominally at 760 mmHg.
logP is the log10 of the octanol-water partition coefficient; higher is more lipophilic.
Water solubility is log10 of mol/L, nominally at 25 °C; higher is more soluble.
Vapor pressures (log10 mmHg) refer to near room temperature, 15 to 30 °C; higher is more volatile.
The Henry's law constant is on a log10 scale in atm·m3/mol (set defined at 25 °C); higher favours air over water.
fu is the fraction unbound in human plasma, from 0 to 1.
Clint is human hepatic intrinsic clearance in µL/min per million cells; 0 means that no clearance was seen.
Cells with "n/a" have no entry in this list.

The entry for C=C1CC[C@]2(C(C)C)C[C@H]12 [Sabinen] lists logP 5.5 and water solubility -4.433 (log10 mol/L).
The entry for CC(CCC(COC(=O)CC(O)C(=O)OCC(CCC(C)CC(C)(C)C)C(C)CC(C)(C)C)C(C)CC(C)(C)C)CC(C)(C)C (stereo not drawn) lists MP -12.4 °C and BP 359.3 °C and water solubility -6.124 (log10 mol/L).
The entry for O=c1c2ccccc2ccc2ccccc12 [5H-Dibenzo[a,d]cyclohepten-5-one] lists logP 3.508 and water solubility -4.653 (log10 mol/L).
The entry for O=C1CCCCCCCCCCCCCCO1 [Pentadecan-15-olide] lists logP 5.79 and water solubility -5.904 (log10 mol/L) and log vapor pressure -3.195 (log10 mmHg).
The entry for CC(C)(O)C(=O)c1ccccc1 [2-Hydroxy-2-methylpropiophenone] lists logP 1.62 and log vapor pressure -2.247 (log10 mmHg).
The entry for CC(O)CNS(=O)(=O)CCCS(=O)(=O)c1ccc(C#N)c(C#N)c1 (stereo not drawn) lists MP 159.6 °C and logP -0.226 and water solubility -3.239 (log10 mol/L).
The entry for CCOCC(C)OC(C)=O (stereo not drawn) [1-Ethoxypropan-2-yl acetate] lists MP -79.5 °C and logP 0.76 and log vapor pressure 0.206 (log10 mmHg).
The entry for Cc1ccccc1CCO [2-Methylphenethyl alcohol] lists logP 2.1 and log vapor pressure -1.846 (log10 mmHg).
The entry for CN(C)CCC=C1c2ccccc2C=Cc2ccccc21 [Cyclobenzaprine] lists MP 217 °C and fu 0.07408.
The entry for CCOc1cc(C)ccc1O [Phenol, 2-ethoxy-4-methyl-] lists BP 230.3 °C and logP 2.5 and log vapor pressure -1.377 (log10 mmHg).
The entry for CCOCCOC(C)(C)C [Propane, 2-(2-ethoxyethoxy)-2-methyl-] lists logP 2.2 and log vapor pressure 1.443 (log10 mmHg).
The entry for NCc1ccccc1CC(=O)N[C@@H]1C(=O)N2C(C(=O)O)=C(CSc3nnnn3CC(=O)O)CS[C@H]12 [Ceforanide] lists logP -3.7 and water solubility -3.421 (log10 mol/L) and fu 0.19.
The entry for CC(CCN(CCC(C)CC(C)(C)C)C(=S)[S-])CC(C)(C)C.CC(CCN(CCC(C)CC(C)(C)C)C(=S)[S-])CC(C)(C)C.[Zn+2] (stereo not drawn) [Zinc bis[bis(3,5,5-trimethylhexyl)carbamodithioate]] lists MP 84.69 °C and water solubility -6.103 (log10 mol/L) and log vapor pressure -5.195 (log10 mmHg).
The entry for C=C(C)C(=O)OCCOCCOc1ccc(C(=O)c2ccccc2)cc1 [2-[2-(4-Benzoylphenoxy)ethoxy]ethyl methacrylate] lists MP -48 °C and water solubility -4.392 (log10 mol/L) and log vapor pressure -5.317 (log10 mmHg).
The entry for CCOC(=O)n1ccn(C)c1=S [Carbimazole] lists logP 0.4 and water solubility -1.773 (log10 mol/L).
The entry for CCCC1CO1 (stereo not drawn) [Oxirane, 2-propyl-] lists logP 1.29 and log vapor pressure 1.72 (log10 mmHg).
The entry for Cc1cc(C2CCCCC2)n(O)c(=O)c1 [Ciclopirox] lists logP 2.3 and water solubility -2.167 (log10 mol/L).
The entry for CC(=O)Nc1c(I)c(C(=O)O)c(I)c(N(C)C(C)=O)c1I [Metrizoic acid] lists MP 282 °C and fu 1.
The entry for CCCCC(CC)C1OCCO1 (stereo not drawn) [1,3-Dioxolane, 2-(1-ethylpentyl)-] lists logP 4.3 and water solubility -3.12 (log10 mol/L) and log vapor pressure -0.833 (log10 mmHg).
The entry for CC(C)(C)CC(C)(C)c1cc(O)c(C(C)(C)CC(C)(C)C)cc1O [2,5-Bis(1,1,3,3-tetramethylbutyl)hydroquinone] lists logP 4.87 and water solubility -7.093 (log10 mol/L).
The entry for O=C1c2c(Cl)c(Cl)c(Cl)c(Cl)c2C2=Nc3cccc4cccc(c34)N12 [C.I. Solvent Red 135] lists MP 309 °C and logP 7.1 and water solubility -7.134 (log10 mol/L).
The entry for Nc1cc([N+](=O)[O-])cc(S(=O)(=O)O)c1O [6-Amino-4-nitro-1-phenol-2-sulfonic acid] lists logP 0.38 and water solubility -1.766 (log10 mol/L).
The entry for C=CCCCCCCCCCCCCCC [1-Hexadecene] lists logP 8.063 and water solubility -8.471 (log10 mol/L).
The entry for COc1ccc(C(=O)Nc2ccccc2)cc1N=Nc1c(O)c(C(N)=O)cc2ccccc12 lists MP 331.2 °C and logP 4.2 and log vapor pressure -10.43 (log10 mmHg).
The entry for CCCCCCC(C)OC(=O)COc1nc(F)c(Cl)c(N)c1Cl (stereo not drawn) [Fluroxypyr-meptyl] lists log Henry constant -6.574 (log10 atm·m3/mol) and hepatic Clint 9.92 µL/min/10^6 cells.
The entry for CC(C)c1ccc2c(c1)OCC(=O)CO2 [2H-1,5-Benzodioxepin-3(4H)-one, 7-(1-methylethyl)-] lists MP 35 °C and BP 267 °C and logP 2.46 and water solubility -1.906 (log10 mol/L) and log vapor pressure -2.874 (log10 mmHg).
The entry for CCN(CC)C(=O)c1ccc[n+](CCCS(=O)(=O)[O-])c1 lists MP 191.1 °C and log vapor pressure -7.243 (log10 mmHg).
The entry for C/C=C/C1CCC(C2CCC(CCC)CC2)CC1 (stereo partly drawn) [4-[(1E)-Prop-1-en-1-yl]-4'-propyl-1,1'-bi(cyclohexane)] lists MP 44 °C and logP 6.4 and water solubility -6.632 (log10 mol/L) and log vapor pressure -4.129 (log10 mmHg).
The entry for C=C(C#N)C(=O)OC [Methyl 2-cyanoacrylate] lists MP -21.5 °C and log vapor pressure -0.699 (log10 mmHg).
The entry for C#C[C@]1(O)CC[C@H]2[C@@H]3CCc4cc(OC)ccc4[C@H]3CC[C@@]21C [Mestranol] lists logP 4.61 and water solubility -4.916 (log10 mol/L).
The entry for C=CC1(C)CCCC(C)(C)O1 (stereo not drawn) [2,2,6-Trimethyl-6-vinyltetrahydropyran] lists water solubility -2.536 (log10 mol/L) and log vapor pressure 0.564 (log10 mmHg).
The entry for Cc1cc(C)c(N)c(S(=O)(=O)O)c1 [Benzenesulfonic acid, 2-amino-3,5-dimethyl-] lists MP 317.6 °C and logP 0.814 and water solubility -1.82 (log10 mol/L).
The entry for CCCCCCCCCCCC(=O)OCC(O)COCC(O)CO (stereo not drawn) [Polyglyceryl-2 laurate] lists logP 3.5 and water solubility -3.894 (log10 mol/L).
The entry for CCCCCCC(=O)OC(=O)CCCCCC [Heptanoic acid, 1,1'-anhydride] lists logP 5.58 and log vapor pressure -2.782 (log10 mmHg).

Extract of 5 entries:

SMILES	name	MP (°C)	BP (°C)	logP	water solubility (log10 mol/L)	log vapor pressure (log10 mmHg)	log Henry constant (log10 atm·m3/mol)	fu	hepatic Clint (µL/min/10^6 cells)
Cc1cc(C2CCCCC2)n(O)c(=O)c1	Ciclopirox	n/a	n/a	2.3	-2.167	n/a	n/a	n/a	n/a
C=CC1(C)CCCC(C)(C)O1 (stereo not drawn)	2,2,6-Trimethyl-6-vinyltetrahydropyran	n/a	n/a	n/a	-2.536	0.564	n/a	n/a	n/a
C=CCCCCCCCCCCCCCC	1-Hexadecene	n/a	n/a	8.063	-8.471	n/a	n/a	n/a	n/a
C=C(C#N)C(=O)OC	Methyl 2-cyanoacrylate	-21.5	n/a	n/a	n/a	-0.699	n/a	n/a	n/a
Nc1cc([N+](=O)[O-])cc(S(=O)(=O)O)c1O	6-Amino-4-nitro-1-phenol-2-sulfonic acid	n/a	n/a	0.38	-1.766	n/a	n/a	n/a	n/a